Test results reported in patent publication US4962224A, “N-naphthoylglycines as aldose reductase inhibitors” (American Home Products Corporation, priority 1989, dated 1990).

Test system: dulcitol accumulation
Experiment: lowering of dulcitol (galactitol) accumulation in tissues of galactosemic rats (Table I, IN VIVO)
Parameters: species or system rat (Sprague-Dawley)
Settings: 4 days; for % Lowering dulcitol accumulation IN VIVO, D: diaphragm; for % Lowering dulcitol accumulation IN VIVO, L: lens
Description: Such experiments are exemplified hereinbelow after the listing of the following general comments pertaining to these experiments:
(a) Four or more groups of six male rats, […], Sprague-Dawley strain, were used. The first group, the control group, was fed a mixture of laboratory chow (rodent Laboratory Chow, Purina) and […] at 20% (w/w %) concentration. […] The test compound was either admixed to the diet or administered by gavage. In experiments involving compound administration in the diet, the average dose administered was calculated from the actual food intake of the animals in each group. The concentration of galactose in the diet of the treated groups was the same as that for the untreated galactosemic group.
(b) After four days, the animals were killed by decapitation. The eyeballs were removed and punctured with a razor blade; the freed lenses were rolled gently on filter paper and weighed. The sciatic nerves were dissected as completely as possible and weighed. Both tissues when frozen can be kept up to two weeks before being analyzed for galactitol.
Only two minor reagent changes were made: (a) the rinsing mixture was an aqueous 5% (w/v) trichloroacetic acid solution and (b) the stock solution was prepared by dissolving 25 mg of dulcitol in 100 mL of an aqueous trichloroacetic acid solution. [N.B.: For each experiment the average value found in the tissue from rats fed the glucose diet was subtracted from the individual values found in the corresponding tissue in galactose-fed rats to obtain the amount of polyol accumulated.]
The figures under L, N, and D represent the percentage decrease of galactitol accumulation in the tissues of the lens, sciatic nerve, and diaphragm, respectively, for treated rats as compared to untreated rats.

## COc1ccc2c(C(=S)N(C)CC(=O)O)c(OCc3ccccc3)ccc2c1C(F)(F)F
10 mg/kg
  % Lowering dulcitol accumulation IN VIVO, D: 60%
  % Lowering dulcitol accumulation IN VIVO, L: N.S.
26 mg/kg
  % Lowering dulcitol accumulation IN VIVO, L: N.S.

## COc1ccc2c(C(=O)N(C)CC(=O)O)c(Cl)ccc2c1C(F)(F)F [Cl O OH, N-[[2-Chloro-6-methoxy-5-(trifluoromethyl)-1-naphthalenyl]carbonyl]-N-methylglycine]
26 mg/kg
  % Lowering dulcitol accumulation IN VIVO, D: 63%
  % Lowering dulcitol accumulation IN VIVO, L: N.S.
49 mg/kg
  % Lowering dulcitol accumulation IN VIVO, L: N.S.

## COc1ccc2c(C(=O)N(C)CC(=O)O)c(OCC(F)(F)F)ccc2c1C(F)(F)F [Example 3, N-[[6-Methoxy-2-(2,2,2-trifluoroethoxy)-5-(trifluoromethyl)-1-naphthalenyl]carbonyl]-N-methylglycine]
24 mg/kg
  % Lowering dulcitol accumulation IN VIVO, D: 63%
  % Lowering dulcitol accumulation IN VIVO, L: N.S.
50 mg/kg
  % Lowering dulcitol accumulation IN VIVO, L: N.S.

## COc1ccc2c(C(=O)N(C)CC(=O)O)c(F)ccc2c1C(F)(F)F [F O OH, N-[[2-Fluoro-6-methoxy-5-(trifluoromethyl)-1-naphthalenyl]carbonyl]-N-methylglycine]
16 mg/kg
  % Lowering dulcitol accumulation IN VIVO, D: 46%
  % Lowering dulcitol accumulation IN VIVO, L: N.S.
24 mg/kg
  % Lowering dulcitol accumulation IN VIVO, D: 70%
  % Lowering dulcitol accumulation IN VIVO, L: N.S.
52 mg/kg
  % Lowering dulcitol accumulation IN VIVO, D: 84%

## COc1ccc2c(C(=S)N(C)CC(N)=O)c(F)ccc2c1C(F)(F)F [F S NH2, [[[2-Fluoro-6-methoxy-5-(trifluoromethyl)-1-naphthalenyl]thioxomethyl]methylamino]acetamide]
2 mg/kg
  % Lowering dulcitol accumulation IN VIVO, D: 53%
  % Lowering dulcitol accumulation IN VIVO, L: N.S.
9.9 mg/kg
  % Lowering dulcitol accumulation IN VIVO, D: 87%
  % Lowering dulcitol accumulation IN VIVO, L: N.S.
5 mg/kg
  % Lowering dulcitol accumulation IN VIVO, L: N.S.
